Reference: patent US20100029676A1 (priority 2005, published 2010)

System: BCR-ABL
Type: cell-based

For `Cc1nc(Nc2ncc(C(=O)Nc3c(C)cccc3Cl)s2)cc(N2CCN(CCO)CC2)n1` [dasatinib, N-(2-chloro-6-methylphenyl)-2-[[6-[4-(2-hydroxyethyl)-1-piperazinyl]-2-methyl-4-pyrimidinyl]amino]-5-thiazolecarboxamide], the Crkl phosphorylation was “inhibited in a dose-dependent manner”.
